Patent US8952169B2 (Genentech, Inc., priority 2012, dated 2015)

Sequences of proteins named here, by UniProt entry; tags and fusion partners are left off.
UniProt Q15858, whole entry, looked up: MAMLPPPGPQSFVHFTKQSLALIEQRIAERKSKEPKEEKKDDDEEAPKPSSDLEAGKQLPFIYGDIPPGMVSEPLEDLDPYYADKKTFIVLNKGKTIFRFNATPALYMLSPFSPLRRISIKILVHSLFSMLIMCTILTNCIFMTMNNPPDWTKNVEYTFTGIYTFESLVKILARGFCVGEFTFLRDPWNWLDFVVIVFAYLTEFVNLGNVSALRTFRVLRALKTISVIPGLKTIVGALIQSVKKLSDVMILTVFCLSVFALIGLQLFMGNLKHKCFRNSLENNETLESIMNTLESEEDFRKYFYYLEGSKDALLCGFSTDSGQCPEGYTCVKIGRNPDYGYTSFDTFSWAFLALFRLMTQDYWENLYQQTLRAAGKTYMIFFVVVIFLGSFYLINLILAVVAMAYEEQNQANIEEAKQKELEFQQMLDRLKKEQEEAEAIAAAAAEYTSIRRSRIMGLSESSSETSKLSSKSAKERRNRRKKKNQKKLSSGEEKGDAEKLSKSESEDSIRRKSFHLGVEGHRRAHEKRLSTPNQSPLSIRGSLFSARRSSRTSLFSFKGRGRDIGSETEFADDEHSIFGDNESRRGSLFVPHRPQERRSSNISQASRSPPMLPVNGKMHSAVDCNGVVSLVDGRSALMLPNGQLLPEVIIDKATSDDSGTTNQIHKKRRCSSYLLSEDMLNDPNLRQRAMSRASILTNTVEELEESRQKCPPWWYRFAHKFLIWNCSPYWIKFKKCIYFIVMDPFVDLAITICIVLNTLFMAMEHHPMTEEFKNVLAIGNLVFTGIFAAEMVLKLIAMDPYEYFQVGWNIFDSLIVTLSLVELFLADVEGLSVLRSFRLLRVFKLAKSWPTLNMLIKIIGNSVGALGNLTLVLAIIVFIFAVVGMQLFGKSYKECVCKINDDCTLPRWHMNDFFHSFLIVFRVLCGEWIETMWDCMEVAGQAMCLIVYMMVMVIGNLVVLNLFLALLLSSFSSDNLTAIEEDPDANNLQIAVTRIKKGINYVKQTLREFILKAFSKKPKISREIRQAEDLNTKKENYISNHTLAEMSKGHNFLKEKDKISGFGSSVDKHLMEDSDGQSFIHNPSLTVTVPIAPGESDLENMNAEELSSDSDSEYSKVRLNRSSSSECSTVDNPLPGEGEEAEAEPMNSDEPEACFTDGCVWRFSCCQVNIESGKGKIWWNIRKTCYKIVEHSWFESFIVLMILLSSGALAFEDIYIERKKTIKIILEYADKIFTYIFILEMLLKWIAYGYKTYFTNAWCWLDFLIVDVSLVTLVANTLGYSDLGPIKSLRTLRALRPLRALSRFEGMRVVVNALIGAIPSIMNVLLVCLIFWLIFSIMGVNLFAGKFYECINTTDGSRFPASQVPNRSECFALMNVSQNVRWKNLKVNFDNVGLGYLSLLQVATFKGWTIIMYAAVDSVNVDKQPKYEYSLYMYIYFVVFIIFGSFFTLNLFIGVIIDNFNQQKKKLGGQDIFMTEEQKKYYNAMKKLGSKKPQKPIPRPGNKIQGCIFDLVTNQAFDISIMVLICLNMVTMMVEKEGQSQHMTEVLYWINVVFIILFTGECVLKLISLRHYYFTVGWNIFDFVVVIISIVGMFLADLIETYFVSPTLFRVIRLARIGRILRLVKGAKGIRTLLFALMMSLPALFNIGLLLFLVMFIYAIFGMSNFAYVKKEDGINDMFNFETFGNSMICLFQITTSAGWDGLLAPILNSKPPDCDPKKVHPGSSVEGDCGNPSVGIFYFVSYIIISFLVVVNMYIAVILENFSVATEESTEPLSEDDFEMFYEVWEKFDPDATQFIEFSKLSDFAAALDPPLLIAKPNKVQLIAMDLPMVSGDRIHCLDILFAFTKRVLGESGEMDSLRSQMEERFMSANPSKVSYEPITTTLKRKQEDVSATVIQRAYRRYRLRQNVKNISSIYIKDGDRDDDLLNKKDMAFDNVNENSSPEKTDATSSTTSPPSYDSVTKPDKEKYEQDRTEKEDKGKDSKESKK

What was measured:
hNav1.7 [1] = target: T1, hNav1.7 (Homo sapiens (Human), UniProt Q15858); test: Patch voltage clamp electrophysiology (PatchXpress), HEK-293 cells, inactivated state block; assay type: cell-based; details: β1 coexpressed, holding −60 mV, read-out: EP_PX 293 hNav1.7 (IC50)
hNav1.7 [2] = target: T1, hNav1.7; test: Tritiated aryl sulfonamide binding to membranes from cells expressing hNav1.7 and the β1 subunit (competitive binding); details: read-out: NaV1.7 395 Memb Binding (IC50)
Method: Tritiated Aryl Sulfonamide Binding to Membranes Isolated from Cells that Heterologously Express hNav1.7 and the β1 Subunit
Preparation of membranes containing recombinantly expressed sodium channels: Frozen recombinant cell pellets were thawed on ice and diluted to 4 times the cell pellet weight with ice cold 50 mM Tris HCl, pH 7.4 buffer. The cell suspensions were homogenized on ice using a motorized glass dounce homogeniser. Homogenates were further diluted 8.4 times with ice cold 50 mM Tris HCl, pH 7.4 buffer and then centrifuged at 200×g at 4° C. for 15 min. The supernatants were collected and centrifuged at 10000×g at 4° C. for 50 min. The pellets were then re-suspended in 100 mM NaCl, 20 mM Tris HCl, pH 7.4 buffer containing 1% v/v protease inhibitors (Calbiochem) and re-homogenized on ice. The homogenized membranes were then processed through a syringe equipped with a 26 gauge needle. Protein concentrations were determined by Bradford Assay and the membranes were stored at −80° C.
Radioligand Binding Studies: Saturation experiments. A representative compound of formula (I) was tritiated. […] Non-specific binding was determined in the presence of 1 μM unlabelled compound. […] [^3H]compound bound to filters was quantified by liquid scintillation counting.
Competitive binding experiments. […] Bound radioactivity was determined by liquid scintillation counting. […]

SMILES | IC50 (hNav1.7 [1]) | other results
O=C(NS(=O)(=O)C1CC1)c1cc(Cl)c(OCC23CC4CC(CC(C4)C2)C3)cc1F | 15.3 nM | 
CC1CCC(COc2cc(F)c(C(=O)NS(=O)(=O)N3CCC3)cc2C2CC2)CC1 (racemic) [Example 388] |  | IC50 (hNav1.7 [2]; membranes with hNav1.7 and β1 subunit, [3H]compound displacement, 18 h, room temperature): 7 nM
C[C@@H]1[C@H]2C[C@@H](C[C@H]1Oc1cc(F)c(C(=O)NS(C)(=O)=O)cc1Cl)C2(C)C [Example 10] | 8.2 nM | 
C[C@@H]1[C@@H](Oc2cc(F)c(C(=O)NS(C)(=O)=O)cc2Cl)C[C@H]2C[C@@H]1C2(C)C [Example 14] | 37.7 nM | 
C[C@H]1CC[C@H](COc2cc(F)c(C(=O)NS(=O)(=O)N3CCC3)cc2C2CC2)CC1 [Example 420] |  | IC50 (hNav1.7 [2]): 6 nM
